From ChEMBL document CHEMBL3612042 (J Med Chem, 2015)
In brackets after ≈: the same amount, converted by molar mass.

Key:
[1] = system: Mycobacterium tuberculosis; assay: Antibacterial activity against Mycobacterium tuberculosis H37Rv measured at 10 to 14 days by broth microdilution method; format: functional
[2] = molecular target: T1, Biotin--[acetyl-CoA-carboxylase] ligase (Mycobacterium tuberculosis (strain ATCC 25618 / H37Rv), UniProt I6YFP0)
T1 sequence (I6YFP0 whole entry): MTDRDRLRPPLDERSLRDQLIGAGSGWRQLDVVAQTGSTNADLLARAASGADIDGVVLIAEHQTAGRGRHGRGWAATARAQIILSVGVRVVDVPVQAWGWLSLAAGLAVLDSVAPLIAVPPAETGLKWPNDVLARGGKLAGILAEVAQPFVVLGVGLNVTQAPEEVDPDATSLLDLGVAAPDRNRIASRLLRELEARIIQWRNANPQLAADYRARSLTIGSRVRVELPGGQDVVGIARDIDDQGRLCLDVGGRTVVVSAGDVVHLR

Question: How did the MIC90 [1] turn out when `Nc1ncnc2c1ncn2COCCNS(=O)(=O)NC(=O)CCCC[C@@H]1SC[C@@H]2NC(=O)N[C@@H]21` was run?
Answer: Its MIC90 is 3.12 µM (≈ 1.6 µg/mL).

Question: And the Kd [2]?
Answer: Its Kd is 315 pM.
